In ChEMBL document CHEMBL1154647, “Synthesis, spectral characterization and biological evaluation of phosphorylated derivatives of galanthamine” (Eur J Med Chem, 2010):
Values after ≈ are worked out from the molar mass of the structure shown.

Chains of the proteins cited; added tags and fusions are not shown. Residues count along the entry.
UniProt P04762, 2-527 limits assumed: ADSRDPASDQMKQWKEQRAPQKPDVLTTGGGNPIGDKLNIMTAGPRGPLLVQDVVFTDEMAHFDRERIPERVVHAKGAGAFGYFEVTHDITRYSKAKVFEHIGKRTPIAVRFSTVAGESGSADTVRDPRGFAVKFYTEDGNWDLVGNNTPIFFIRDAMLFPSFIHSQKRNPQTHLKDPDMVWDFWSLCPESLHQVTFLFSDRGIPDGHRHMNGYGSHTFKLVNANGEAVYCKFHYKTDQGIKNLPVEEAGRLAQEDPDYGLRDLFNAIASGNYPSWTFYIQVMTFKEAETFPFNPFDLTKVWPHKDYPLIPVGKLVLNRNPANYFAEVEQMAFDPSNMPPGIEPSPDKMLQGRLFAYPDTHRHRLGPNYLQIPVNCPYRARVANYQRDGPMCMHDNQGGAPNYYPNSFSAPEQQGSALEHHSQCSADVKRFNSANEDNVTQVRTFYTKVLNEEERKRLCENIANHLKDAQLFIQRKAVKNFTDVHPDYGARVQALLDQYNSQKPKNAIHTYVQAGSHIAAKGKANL

How the values were obtained:
[1] = system: Brain; assay: Antioxidant activity in Wistar rat brain assessed as reduction in glutathione content; details: strain Wistar
[2] = Inhibition of superoxide dismutase in Wistar rat brain; type: tissue-based; details: strain Wistar
[3] = target: Catalase (Rattus norvegicus, UniProt P04762); assay: Inhibition of catalase in Wistar rat brain
[4] = system: Brain; assay: Antioxidant activity in Wistar rat brain assessed as inhibition of lipid peroxidation; details: strain Wistar

| Structure (SMILES) | EC50 [1] | EC50 [2] | EC50 [3] | EC50 [4] |
| --- | --- | --- | --- | --- |
| COc1ccc2c3c1O[C@H]1C[C@@H](OP(=O)(SCCN)N(CCCl)CCCl)C=C[C@@]31CCN(C)C2 (stereo partly drawn) | 2.66 µg/mL (≈ 4.83 µM) | 2.31 µg/mL (≈ 4.2 µM) | 2.66 µg/mL (≈ 4.83 µM) | 2.91 µg/mL (≈ 5.29 µM) |
| COc1ccc2c3c1O[C@H]1C[C@@H](OP(=O)(Oc4ccc([N+](=O)[O-])cc4)SCCN)C=C[C@@]31CCN(C)C2 (stereo partly drawn) | 1.56 µg/mL (≈ 2.85 µM) | 1.74 µg/mL (≈ 3.18 µM) | 2.03 µg/mL (≈ 3.71 µM) | 1.86 µg/mL (≈ 3.4 µM) |
